From patent US9751831B2, “Blood brain barrier-penetrating oximes for cholistenerases reactivation” (dated 2017) come the findings set out here.

For the assay, the target named is hAChE (Homo sapiens, UniProt P22303). Briefly: Reactivation of OP (nerve agent model compound)-inhibited hAChE, modified Ellman's assay. The settings on record: for Reactivation of Sp-GBC-inhibited ChEs, Relative activity [%], hAChE / Reactivation of Sp-GF-SMe-inhibited ChEs, Relative activity [%], hAChE: 100 μM oxime, relative to sample not treated with OP, 20 min per footnote (1 h); for Relative reactivation, AChE, Sp-GB / Relative reactivation, AChE, Sp-GF / Relative reactivation, AChE, Sp-GA/ETP: mean ± standard deviation.

The mark [1] stands for this setting: Table 4, Sp-GB (sarin model)-inhibited hAChE.
[2] abbreviates: Table 4, Sp-GF (cyclosarin model)-inhibited hAChE.
[3] abbreviates: Table 4, tabun model (Sp-GA)/Echothiophate-inhibited hAChE.

The structures appear in SMILES notation.

As for `CN(C)C(C=NO)=Nc1ccccc1.Cl`, the “Reactivation of Sp-GBC-inhibited ChEs, Relative activity [%], hAChE” value came out at 9% and the “Reactivation of Sp-GF-SMe-inhibited ChEs, Relative activity [%], hAChE” value turned out to be 3%. Also, the “Relative reactivation, AChE, Sp-GB” value under setting [1] amounted to 0.22 ± 0.01. Moreover, under setting [2], the “Relative reactivation, AChE, Sp-GF” value was 0.07 ± 0.01. Besides, under setting [3], the “Relative reactivation, AChE, Sp-GA/ETP” value is recorded as 0.16 ± 0.04.
With `Cl.ON=CC1=NCCCN1Cc1ccc(Cl)cc1Cl`, where the note is “Table 5, Sp-GA/ETP-inhibited hAChE”, the “Relative reactivation, AChE, Sp-GA/ETP” value was determined as 0.29 ± 0.06. The “Relative reactivation, AChE, Sp-GB” value (Table 5, Sp-GB-inhibited hAChE) is 0.26 ± 0.06. In addition, the “Relative reactivation, AChE, Sp-GF” value (Table 5, Sp-GF-inhibited hAChE) was determined as 0.21 ± 0.01.
As for `Cl.ON=CC1=NCCN1Cc1ccccc1`, the “Reactivation of Sp-GBC-inhibited ChEs, Relative activity [%], hAChE” value stood at 29% and the “Reactivation of Sp-GF-SMe-inhibited ChEs, Relative activity [%], hAChE” value was 32%.
Take `CC(C)CCN=C(C=NO)N(C)C.Cl`: the “Relative reactivation, AChE, Sp-GB” value under setting [1] came to 0.49 ± 0.03. Moreover, the “Relative reactivation, AChE, Sp-GF” value under setting [2] was found to be 0.08 ± 0.01. Moreover, the “Relative reactivation, AChE, Sp-GA/ETP” value under setting [3] came out at 0.24 ± 0.01.
